Drawing on PMC3648997 (Bioorganic & medicinal chemistry letters, 2013), this text covers EC50 for one compound.

This assay concerns ARE-bla HepG2 cell line. The assay can be described thus: cells. Particulars: Homo sapiens, HepG2, read-out: ARE-inducing activity EC50.

Turning to `O=C(O)[C@@H]1CCCC[C@@H]1C(=O)N1CCc2ccccc2[C@@H]1CN1C(=O)c2ccccc2C1=O` [(RSR)-5], the EC50 (commonly the concentration at which the effect is half-maximal) was over 100 µM.
